Results reported in patent US6809110B2 (Hoffmann-La Roche Inc., priority 2002, dated 2004).

Columns and labels:
[1] = target: T1, PPARα (Homo sapiens, UniProt Q07869); assay: Luciferase transcriptional reporter gene assay, BHK21 cells transfected with pFA-PPARα-LBD; format: cell-based; design: PPARα (aa 167 to 469); conditions: 24 hours incubation
T1 sequence (Q07869 167-468 limits assumed): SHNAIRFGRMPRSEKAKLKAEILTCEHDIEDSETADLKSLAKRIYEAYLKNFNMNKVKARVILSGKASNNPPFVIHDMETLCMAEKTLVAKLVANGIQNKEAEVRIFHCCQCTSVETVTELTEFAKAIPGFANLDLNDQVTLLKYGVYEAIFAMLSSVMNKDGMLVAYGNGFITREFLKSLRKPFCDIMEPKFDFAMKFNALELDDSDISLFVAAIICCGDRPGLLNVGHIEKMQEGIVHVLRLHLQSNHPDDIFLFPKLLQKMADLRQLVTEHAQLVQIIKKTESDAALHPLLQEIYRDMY
Experimental: (§1) Full-length cDNA clones for human PPARα and mouse PPARγ were obtained by RT-PCR from human adipose and mouse liver cRNA, respectively, cloned into plasmid vectors and verified by DNA sequencing. […] To accomplish this, the portions of the cloned sequences encoding the LBDs were amplified from the full-length clones by PCR and then subcloned into the plasmid vectors. Final clones were verified by DNA sequence analysis.
Baby hamster kidney cells (BHK21 ATCC CCL10) were grown in DMEM medium containing 10% FBS at 37° C. in a 95%02:5%CO2 atmosphere. Cells were seeded in 6 well plates at a density of 10^5 Cells/well and then batch-transfected with either the pPA-PPARγ-LBD or pFA-PPARα-LBD expression plasmids plus a reporter plasmid and an expression plasmid encoding the secretable form of alkaline phosphatase (SEAP) as a normalization control. […] Following incubation of the cells for 24 hours with substances, 50 ul of the supernatant was recovered and analyzed for SEAP activity (Roche Molecular Biochemicals). […] Luminescence for both SEAP and luciferase was measured in a Packard TopCount. Luciferase activity was normalized to the SEAP control and transcriptional activation in the presence of a test substance was expressed as fold-activation over cells incubated in the absence of the substance. EC50 values were calculated using the XLfit program (ID Business Solutions Ltd. UK).

[2] = target: T1, PPARα; assay: PPARα radioligand binding assay (SPA, GST-PPARα-LBD fusion protein); design: PPARγ (aa 174 to 476) and PPARα (aa 167 to 469); made in house; host or cells: E. coli BL21(pLysS); conditions: SPA beads
Description: as §1
Induction, expression, and purification of GST-LBD fusion proteins were performed in E. coli strain BL21(pLysS) cells by standard methods (Ref: Current Protocols in Molecular Biology, Wiley Press, edited by Ausubel et al.).
PPARα receptor binding was assayed in TKE50 (50 mM Tris-HCl, pH 8, 50 mM KCl, 2 mM EDTA, 0.1 mg/ml fatty acid-free BSA and 10 mM DTT). […] For radioligand binding e.g. 10000 dpm of 2(S)-(2-benzoyl-phenylamino)-3-{4-[1,1-ditritio-2-(5-methyl-2-phenyl-oxazol-4-yl)-ethoxy]-phenyl}-propionic acid or 2,3-ditritio-2(S)-methoxy-3-(4-(2-(5-methyl-2-phenyl-oxazol-4-yl)-ethoxy]-benzo[b]thiophen-7-yl}-propionic acid in 50 ul were added, the reaction incubated at RT for 1 h and scintillation proximity counting performed. All binding assays were performed in 96 well plates and the amount of bound ligand measured on a Packard TopCount using OptiPlates (Packard). Nonspecific binding was determined in the presence of 10^−4 M unlabelled compound. […]

PPARα EC50 [1]: inactive | PPARα IC50 [2]: inactive
Structure (SMILES): CN(CCOc1ccc(CC2SC(=O)NC2=O)cc1)c1ccccn1 (centres unmarked) [Rosiglitazone, reference compound]
